Measured values taken from patent US4770870A, “Method for reducing pain associated with the administration of 4-sulfido-oxazaphosphorines and 4-sulfoalkylthio-oxazaphorphorines” (Asta Pharma Aktiengesellschaft, priority 1981, dated 1988).

How the values were obtained:
Yoshida sarcoma = experiment: Isolated perfusion of tumor carrying rat legs; settings: P1 alone
S180 cancer cells = experiment: S180 tumor, ascites form, NMRI-mouse, intraperitoneal chemotherapy

O=P1(N(CCCl)CCCl)NC(SCCO)CCO1 (stereo not drawn)
healing (animals) (Yoshida sarcoma; 2000 nmoles/ml): healing with two of the 4 animals
tumor growth (Yoshida sarcoma; 2000 nmoles/ml): retardation of the growth of the tumor
animals died after the perfusion (Yoshida sarcoma; 5000 nmoles/ml): two
TI50 (S180 cancer cells; 30 days observation): 13
TI50 (S180 cancer cells; 60 days observation): 9.7
CD50 (S180 cancer cells; single intraperitoneal, 3 days after transplantation, mole ratio 1:5 for combination): 18 mg/kg
